# Reference: US20260000643A1, “Combination Of Curaxins And Immune Checkpoint Inhibitors For Treating Cancer” (Institute For Cancer Research d/b/a The Research Institute …, priority 2022, published 2026)
# B1: IFNβ: recombinant type I interferon cytokine (protein, UniProt P01574 22-187, looked up)
# Interferon beta: MSYNLLGFLQRSSNFQCQKLLWQLNGRLEYCLKDRMNFDIPEEIKQLQQFQKEDAALTIYEMLQNIFAIFRQDSSSTGWNETIVENLLANVYHQINHLKTVLEEKLEKEDFTRGKLMSSLHLKRYYGRILHYLKAKEYSHCAWTIVRVEILRNFYFINRLTGYLRN
# Test system: ADAR1 KO FLAG-ZBP1 MEFs
# Assay: Cytokine-induced ZBP1-dependent cell death in ADAR1-deficient MEFs
# Type: cell-based, murine
# Protocol: FIG. 2 (Panel d) depicts Zbp1^−/− MEFs expressing FLAG-ZBP1 in which ADAR1 was present (ADAT WT) or ablated by CSISPR/Cas9 (ADAR KO) treated with indicated cytokines (100 ng/mL) and cell viability determined at 48 hours post treatment.
# FIG. 2 (Panel e) depicts MEFs produced as in FIG. 2 (Panel d) treated with IFNβ or IFNγ (100 ng/mL) in the presence or absence of zVAD (50 mM) plus GSK'843 (5 mM) and viability examined at 48 hours post exposure.
# Immortalized Zbp1^−/− stably reconstituted with FLAG-ZBP1 MEFs were transiently transfected with TrueGuide Synthetic sgRNA against mouse Adar1 (ThermoFisher Scientific, CRISPR162007 SGM) and TrueCut Cas9 Protein (ThermoFisher Scientific, A36499) by Lipofectamine CRISPRMAX Cas9 Transfection Reagent (ThermoFisher Scientific, CMAX00008). After two days, cells were harvest and examined ADAR1 protein level by western blot.
# To explore this possibility, we generated immortalized Zbp1^−/− MEFs stably expressing either FLAG-tagged wild-type murine ZBP1 or an empty vector control, ablated ADAR1 in these cells, and observed them over a 12-day period. […] In contrast, Zbp1^−/− MEFs carrying an empty vector underwent growth arrest by day 7, but remained viable for the duration of the study (see, FIG. 2, Panel a). Exposing ADAR1 KO cells to recombinant IFNβ triggered ZBP1-dependent cell death within 48 hours of treatment (see, FIG. 2, Panel b and Panel c). […] Thus, Z-RNA sequences within the 3′UTRs of ISG mRNAs are bona fide ligands for ZBP1 activation in ADAR1-deficient cells (see, FIG. 2, Panel h). Following activation, ZBP1 complexed with RIPK3 and MLKL, and induced phosphorylation of MLKL in IFN-treated ADAR1 KO cells (see, FIG. 2, Panel i). […] Phosphorylated MLKL was first seen in the nucleus, before migrating to the cytosol and the plasma membrane (see, FIG. 2, Panel j and Panel k). […] Rupture was first seen ˜24 hours post IFNβ exposure in ADAR1 KO FLAG-ZBP1 MEFs, shortly before loss of viability (see, FIG. 7, Panel e). […] ZBP1-driven necroptosis is thus a heretofore unappreciated arm of the innate immune response to endogenous dsRNA.
molecule,measurement,setting,value
B1,Time of first nuclear envelope rupture,"ADAR1 KO FLAG-ZBP1 MEFs, post IFNβ exposure",~24 h
same,Time to ZBP1-dependent cell death,"ADAR1 KO cells, recombinant IFNβ",≤ 48 h
same,ZBP1-dependent cell death in ADAR1-deficient MEFs,"cytokines 100 ng/mL, viability at 48 hours",induced ZBP1-dependent cell death
same,MEFs with detectable rupture of the nuclear envelope,"immortalized MEFs, 48 hours post IFNβ treatment",~30%
